PMC9814779, “A triple farnesoid X receptor and peroxisome proliferator-activated receptor α/δ activator reverses hepatic fibrosis in diet-induced NASH in mice” (Communications Chemistry, 2020)

By UniProt entry, the sequences of proteins in these tests, tags left out. Where a name states a change or a piece, a line headed by the entry shows the natural chain unless it says otherwise. Residues count along the entry.
UniProt Q07869, 239-466 limits assumed, stated change not applied: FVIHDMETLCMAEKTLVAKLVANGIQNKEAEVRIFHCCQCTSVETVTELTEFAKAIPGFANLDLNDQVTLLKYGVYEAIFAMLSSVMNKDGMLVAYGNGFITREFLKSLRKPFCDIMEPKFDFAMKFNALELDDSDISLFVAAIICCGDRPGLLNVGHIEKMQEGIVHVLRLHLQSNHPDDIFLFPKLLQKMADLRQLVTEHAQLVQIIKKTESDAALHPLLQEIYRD
UniProt Q03181, 211-439 limits assumed, stated change not applied: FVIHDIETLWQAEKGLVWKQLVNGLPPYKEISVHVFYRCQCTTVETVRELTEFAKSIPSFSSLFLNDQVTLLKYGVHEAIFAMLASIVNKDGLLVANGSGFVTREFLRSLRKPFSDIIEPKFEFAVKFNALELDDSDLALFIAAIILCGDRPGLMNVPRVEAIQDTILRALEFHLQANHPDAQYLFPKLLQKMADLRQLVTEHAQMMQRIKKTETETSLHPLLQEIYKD
UniProt Q96RI1, whole entry: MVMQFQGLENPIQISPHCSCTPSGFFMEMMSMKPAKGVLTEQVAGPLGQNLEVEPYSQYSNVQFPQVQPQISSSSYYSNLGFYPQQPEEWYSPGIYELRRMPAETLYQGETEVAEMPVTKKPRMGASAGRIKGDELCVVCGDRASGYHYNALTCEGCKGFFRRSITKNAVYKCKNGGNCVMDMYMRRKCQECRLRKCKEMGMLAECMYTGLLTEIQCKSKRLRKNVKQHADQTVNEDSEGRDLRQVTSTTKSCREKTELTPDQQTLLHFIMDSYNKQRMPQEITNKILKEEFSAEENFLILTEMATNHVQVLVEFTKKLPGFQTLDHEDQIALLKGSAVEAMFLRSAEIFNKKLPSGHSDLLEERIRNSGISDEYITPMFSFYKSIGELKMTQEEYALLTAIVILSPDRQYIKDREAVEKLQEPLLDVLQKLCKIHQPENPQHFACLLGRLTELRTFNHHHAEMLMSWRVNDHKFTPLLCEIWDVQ
UniProt P19793, whole entry partner: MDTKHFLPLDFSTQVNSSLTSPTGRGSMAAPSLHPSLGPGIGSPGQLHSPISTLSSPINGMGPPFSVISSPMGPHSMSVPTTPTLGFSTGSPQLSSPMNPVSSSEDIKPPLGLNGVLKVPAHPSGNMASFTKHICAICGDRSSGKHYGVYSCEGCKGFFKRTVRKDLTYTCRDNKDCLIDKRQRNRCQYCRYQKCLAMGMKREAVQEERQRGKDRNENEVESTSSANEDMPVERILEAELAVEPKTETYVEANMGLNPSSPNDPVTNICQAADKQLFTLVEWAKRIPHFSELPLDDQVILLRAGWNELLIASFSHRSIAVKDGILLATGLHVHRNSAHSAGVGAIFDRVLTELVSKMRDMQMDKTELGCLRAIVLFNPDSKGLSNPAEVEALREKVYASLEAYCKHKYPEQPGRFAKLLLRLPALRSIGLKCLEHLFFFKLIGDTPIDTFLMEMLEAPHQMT

Assays:
[1] = target: human PPARγ ligand-binding domain (Gal4 chimera) (Homo sapiens, UniProt P37231); assay: Gal4 hybrid reporter gene assay, PPARγ; settings: mean ± SEM, n = 3; for EC50: read-out: EC50 [μM] PPARγ; for max. rel. act. PPARγ: relative to rosiglitazone at 1 µM
Method: (§1) […] . Activity on PPARs was determined in hybrid reporter gene assays in HEK293T cells using chimeric receptors composed of the respective human PPAR subtype ligand-binding domain (LBD) and the DNA-binding domain of the yeast protein Gal4. A Gal4 inducible firefly luciferase construct served as reporter gene. FXR activation was determined in a full-length reporter gene assay in HeLa cells in which the firefly luciferase reporter was under the control of the FXR response element (RE) from the promoter region of human bile salt export protein (BSEP). This RE requires the entire human FXR:retinoid X receptor (RXR) heterodimer, and thus FXR and RXRα were overexpressed for the assay system. In both assays, a constitutively expressed renilla luciferase was co-transfected to serve for normalization of transfection efficiency and to observe test compound toxicity. […] .
(§2) For the hybrid reporter gene assays, the previously reported Gal4-fusion receptor plasmids pFA-CMV-hPPARα-LBD[29], pFA-CMV-hPPARδ-LBD[29], pFA-CMV-hPPARγ-LBD[29], pFA-CMV-hLXRα-LBD[30], pFA-CMV-hLXRβ-LBD[30], pFA-CMV-hRXRα-LBD[31], pFA-CMV-hRXRβ-LBD[31], pFA-CMV-hRXRγ-LBD[31], pFA-CMV-hRARα-LBD[31], pFA-CMV-hRARβ-LBD[31], pFA-CMV-hRARγ-LBD[31], pFA-CMV-hVDR-LBD[31], and pFA-CMV-hCAR-LBD[31] coding for the hinge region and LBD of the canonical isoform of the respective nuclear receptor were used. pFR-Luc (Stratagene) was used as reporter plasmid for Gal4 hybrid reporter gene assays. pcDNA3-hFXR[32] and pSG5-hRXR[33] served for receptor overexpression in the full-length FXR assay and pGL3basic (Promega Corporation, Fitchburg, WI, USA) with a shortened construct of the BSEP promoter cloned into the SacI/NheI cleavage site in front of the luciferase gene[34] was used as reporter. PPRE-pGL3[35] contains the human full-length PPRE (cloned into the SacI/NheI cleavage site in front of the luciferase gene) and was used as reporter plasmid for the full-length PPRE reporter gene assay. pRL-SV40 (Promega) was used in all assays for normalization of transfection efficiency and cell growth.
(§3) HEK293T cells (German Collection of Microorganisms and Cell Cultures, DSMZ) were used for the Gal4 hybrid reporter gene assays and the PPRE assay. HEK293T cells were grown in Dulbecco’s modified Eagle’s medium (DMEM) high glucose, supplemented with 10% fetal serum bovine (FCS), sodium pyruvate (1 mM), penicillin (100 U/mL), and streptomycin (100 μg/mL) at 37 °C and 5% CO2. The day before transfection, HEK293T cells were seeded in 96-well plates (3 × 10^4 cells/well). Before transfection, medium was changed to Opti-MEM without supplements. Transient transfection was carried out using Lipofectamine LTX reagent (Invitrogen) according to the manufacturer’s protocol with pFR-Luc (Stratagene), pRL-SV40 (Promega), and the corresponding Gal4-fusion nuclear receptor plasmid. Five hours after transfection, medium was changed to Opti-MEM supplemented with penicillin (100 U/mL), streptomycin (100 μg/mL), and now additionally containing 0.1% DMSO and the respective test compound or 0.1% DMSO alone as untreated control. Each concentration was tested in duplicates, and each experiment was repeated in at least three biologically independent repeats. Following overnight (12–14 h) incubation with the test compounds, cells were assayed for luciferase activity using Dual-Glo™ Luciferase Assay System (Promega) according to the manufacturer’s protocol. HeLa cells (DSMZ) were used for the full-length FXR assay and were grown in DMEM high glucose supplemented with 10% FCS, sodium pyruvate (1 mM), penicillin (100 U/mL), and streptomycin (100 μg/mL) at 37 °C and 5% CO2. Twenty-four hours before transfection, cells were seeded in 96-well plates with a density of 8000 cells per well. Three and a half hours before transfection, medium was changed to DMEM high glucose, supplemented with sodium pyruvate (1 mM), penicillin (100 U/mL), streptomycin (100 μg/mL), and 0.5% charcoal-stripped FCS. […]

[2] = target: human PPARα ligand-binding domain (Gal4 chimera) (Homo sapiens, UniProt Q07869); assay: Gal4 hybrid reporter gene assay, PPARα; settings: mean ± SEM, n = 3; for EC50: read-out: EC50 [μM] PPARα
Method: as §1, §2
as §3, with “protocol.” for “protocol. HeLa cells (DSMZ) were used for the full-length FXR assay and were grown in DMEM high glucose supplemented with 10% FCS, sodium pyruvate (1 mM), penicillin (100 U/mL), and streptomycin (100 μg/mL) at 37 °C and 5% CO2. Twenty-four hours before transfection, cells were seeded in 96-well plates with a density of 8000 cells per well. Three and a half hours before transfection, medium was changed to DMEM high glucose, supplemented with sodium pyruvate (1 mM), penicillin (100 U/mL), streptomycin (100 μg/mL), and 0.5% charcoal-stripped FCS.”

[3] = target: human PPARδ ligand-binding domain (Gal4 chimera) (Homo sapiens, UniProt Q03181); assay: Gal4 hybrid reporter gene assay, PPARδ; settings: mean ± SEM, n = 3; for EC50: read-out: EC50 [μM] PPARδ
[4] = target: human FXR:retinoid X receptor (RXR) heterodimer (Homo sapiens, UniProt Q96RI1); assay: Full-length FXR reporter gene assay (BSEP response element) in HeLa cells; settings: mean ± SEM, n = 3; for max. rel. act. FXR: relative to GW4064 at 3 µM

Compound | EC50 ([1]; HEK293T) [µM] | max. rel. act. PPARγ [1] [%] | EC50 ([2]; HEK293T) [µM] | max. rel. act. PPARα ([2]; relative to GW7647 at 1 µM) [%] | EC50 ([3]; HEK293T) [µM] | max. rel. act. PPARδ ([3]; relative to L165,041 at 1 µM) [%] | max. rel. act. FXR [4] [%] | EC50 [μM] PPARγ ([1]; HEK293T) | EC50 [μM] PPARα ([2]; HEK293T) | EC50 [μM] PPARδ ([3]; HEK293T) | EC50 ([4]; read-out: EC50 [μM] FXR, HeLa) [µM]
O=C(O)c1cccc(NC(=O)c2ccccc2NC(=O)c2ccc3ccccc3c2)c1 | 1.6 | 17 ± 1 | 0.15 | 11 ± 1 | 1.3 | 14 ± 1 | 37 ± 1 | – | – | – | –
O=C(O)c1ccc(NC(=O)c2ccccc2NC(=O)c2ccc3ccccc3c2)cc1 | 4.4 | 18 ± 2 | > 30 | – | > 30 | – | 23 ± 1 | – | – | – | –
O=C(Nc1ccccc1C(=O)Nc1ccccc1C(=O)O)c1ccc2ccccc2c1 | – | – | – | – | – | – | 44 ± 3 | tox. | tox. | tox. | 7
O=C(O)Cc1ccc(NC(=O)c2ccccc2NC(=O)c2ccc3ccccc3c2)cc1 | > 30 | – | > 30 | – | > 30 | – | 9.8 ± 0.4 | – | – | – | –
